{"source": "patent US20060188566A1", "about": "“Nanoparticulate formulations of docetaxel and analogues thereof” (Elan Pharma International Limited, priority 2005, published 2006)", "origin": "cited, not measured here", "conditions": "in vivo; cited from earlier work", "data": [{"substance": "albumin-bound paclitaxel", "values": [{"measurement": "solvent-mediated toxicities", "result": "not seen"}]}]}
